Columns and labels:
[1] = target: T1, recombinant human soluble endoglin (sEng; Glu26-Gly586) (human, UniProt P17813 26-586); test: peptide or protein array; ProtoArray human protein Microarray v5.0 (over 9000 human proteins arrayed) probed with recombinant sEng in two replicates; detection with anti-endoglin mAb SN6h and HRP secondary antibody; hits with Z-score >=2.0 in both arrays; conditions: both partners purified
T1 construct: human endoglin (CD105), extracellular domain, Glu26-Gly586; The same bought protein was the probe of the array and the analyte of the BLI; also called recombinant human endoglin/CD105 protein; source: bought: R&D Systems (1097-EN), purified recombinant
T1 sequence (looked up): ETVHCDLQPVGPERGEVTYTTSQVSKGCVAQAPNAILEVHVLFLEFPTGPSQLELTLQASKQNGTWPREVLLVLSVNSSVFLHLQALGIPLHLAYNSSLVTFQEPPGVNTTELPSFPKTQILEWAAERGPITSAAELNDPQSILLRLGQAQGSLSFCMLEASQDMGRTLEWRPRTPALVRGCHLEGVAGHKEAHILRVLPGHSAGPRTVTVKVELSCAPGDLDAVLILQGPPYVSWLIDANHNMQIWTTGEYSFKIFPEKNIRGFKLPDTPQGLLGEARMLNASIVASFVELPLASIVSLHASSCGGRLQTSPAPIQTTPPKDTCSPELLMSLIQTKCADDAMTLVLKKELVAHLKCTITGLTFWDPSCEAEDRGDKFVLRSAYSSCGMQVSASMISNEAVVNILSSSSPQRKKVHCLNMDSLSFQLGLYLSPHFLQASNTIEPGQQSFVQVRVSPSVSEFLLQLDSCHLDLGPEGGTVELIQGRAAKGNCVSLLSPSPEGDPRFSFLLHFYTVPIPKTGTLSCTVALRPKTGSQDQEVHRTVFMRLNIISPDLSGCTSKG

[2] = target: T1, recombinant human soluble endoglin …; test: BLI; BLItz; TRIM21 with N-terminal 6xHis (5.4 µM) loaded on Ni-NTA biosensor tips; 4.1 µM sEng or 0.1% BSA in PBS (negative control); 300 s association, 300 s dissociation; conditions: both partners purified

B1: Tripartite motif-containing 21 (TRIM21) (arrayed on the ProtoArray) (natural protein, human, UniProt P19474-1 1-475, looked up)
chain: MASAARLTMMWEEVTCPICLDPFVEPVSIECGHSFCQECISQVGKGGGSVCPVCRQRFLLKNLRPNRQLANMVNNLKEISQEAREGTQGERCAVHGERLHLFCEKDGKALCWVCAQSRKHRDHAMVPLEEAAQEYQEKLQVALGELRRKQELAEKLEVEIAIKRADWKKTVETQKSRIHAEFVQQKNFLVEEEQRQLQELEKDEREQLRILGEKEAKLAQQSQALQELISELDRRCHSSALELLQEVIIVLERSESWNLKDLDITSPELRSVCHVPGLKKMLRTCAVHITLDPDTANPWLILSEDRRQVRLGDTQQSIPGNEERFDSYPMVLGAQHFHSGKHYWEVDVTGKEAWDLGVCRDSVRRKGHFLLSSKSGFWTIWLWNKQKYEAGTYPQTPLHLQVPPCQVGIFLDYEAGMVSFYNITDHGSLIYSFSECAFTGPLRPFFSPGFNDGGKNTAPLTLCPLNIGSQGSTDY
notes: human TRIM21, E3 ubiquitin-protein ligase; source: bought: ProtoArray human protein Microarray v5.0 (Life Technologies), individually purified and arrayed
binding result [1]: binds

B2: human full-length TRIM21 protein (RO52; 6His-tag, N-terminus, LSBio) (enzyme, UniProt P19474 1-475, looked up)
chain: MASAARLTMMWEEVTCPICLDPFVEPVSIECGHSFCQECISQVGKGGGSVCPVCRQRFLLKNLRPNRQLANMVNNLKEISQEAREGTQGERCAVHGERLHLFCEKDGKALCWVCAQSRKHRDHAMVPLEEAAQEYQEKLQVALGELRRKQELAEKLEVEIAIKRADWKKTVETQKSRIHAEFVQQKNFLVEEEQRQLQELEKDEREQLRILGEKEAKLAQQSQALQELISELDRRCHSSALELLQEVIIVLERSESWNLKDLDITSPELRSVCHVPGLKKMLRTCAVHITLDPDTANPWLILSEDRRQVRLGDTQQSIPGNEERFDSYPMVLGAQHFHSGKHYWEVDVTGKEAWDLGVCRDSVRRKGHFLLSSKSGFWTIWLWNKQKYEAGTYPQTPLHLQVPPCQVGIFLDYEAGMVSFYNITDHGSLIYSFSECAFTGPLRPFFSPGFNDGGKNTAPLTLCPLNIGSQGSTDY
notes: human TRIM21 (RO52), full-length; No catalogue number is printed; also called TRIM21/6xHis at the N-terminus; R052; source: bought: LSBio; not shown: His6, N-terminal, kept
binding result [2]: binds

From publication PMC6769930, “Endoglin Protein Interactome Profiling Identifies TRIM21 and Galectin-3 as New Binding Partners” (Cells, 2019)
